# Experimental data published in patent US20250221947A1, “METHODS FOR TREATING A CORONAVIRUS INFECTION USING VALPROIC ACID AND DOCOSAHEXAENOIC ACID” (priority 2024, published 2025).
# Assay: Serum VPA levels in a national data set (LabCorp)
# Details: June 2021
structure (smiles),measurement,value
"CCCC(CCC)C(=O)O [VPA, valproic acid]",share of patients with a serum level of 80 μg/mL (~0.55 mM),< 25%
